# Data from BindingDB's records for US10144715, “Piperazine derivatives as liver X receptor modulators” (2018).
# The chains behind the UniProt entries cited, without tags or fusion partners.
# UniProt P55055, whole entry, looked up: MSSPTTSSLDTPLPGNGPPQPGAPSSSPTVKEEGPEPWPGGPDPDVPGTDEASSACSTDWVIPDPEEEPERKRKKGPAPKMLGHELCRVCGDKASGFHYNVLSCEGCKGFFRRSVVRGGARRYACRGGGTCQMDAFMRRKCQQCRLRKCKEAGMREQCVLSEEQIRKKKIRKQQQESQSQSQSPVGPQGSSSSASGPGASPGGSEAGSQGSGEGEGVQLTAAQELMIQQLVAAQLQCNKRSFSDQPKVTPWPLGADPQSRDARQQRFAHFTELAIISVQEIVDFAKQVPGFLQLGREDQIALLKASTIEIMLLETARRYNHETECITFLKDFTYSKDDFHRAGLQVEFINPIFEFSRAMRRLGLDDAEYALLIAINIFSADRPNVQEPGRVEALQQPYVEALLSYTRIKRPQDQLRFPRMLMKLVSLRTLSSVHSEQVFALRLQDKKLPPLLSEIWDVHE
# Target: Oxysterols receptor LXR-beta (Homo sapiens, UniProt P55055)
# Test: LXR alpha/beta Radioligand Binding Assay
smiles,measurement,value
CC(C)[C@@H]1CN(c2ccc(F)c(S(C)(=O)=O)c2)CCN1C(=O)OCC(F)(F)F,Ki,290 nM
